{
  "source": "paper PMC2662459",
  "about": "“Developmental Toxicity of Ochratoxin A in Rat Embryo Midbrain Micromass Cultures” (International Journal of Molecular Sciences, 2008)",
  "key": {"[1]": {"test_system": "GFAP expression (astrocytes)", "test": "Differentiation, immunoenzymatic determination of GFAP expression", "assay_type": "cell-based, rat", "settings": "NRU IC50 over ID50", "description": "(§1) This study was carried out according to compliance with bioethical principles. Wistar albino rats were housed under standard laboratory condition of lighting (12 h dark/12 h light), temperature (20 ± 2 °C), and relative humidity (50 – 60%) with free access to commercial feed (Murigan) and tap water. Animals (10–12 week old) were mated overnight and the appearance of a vaginal plug on the next morning was considered as day one of pregnancy. Rat embryos were collected on day 13 of gestation. Procedures were followed essentially as described in INVITTOX Protocol No. 114 [23].\n(§2) Tissues were pooled from a number of embryos, washed and incubated for 20 min at 37 °C in sequence in Earle’s balanced salt solution calcium and magnesium-free (CMF, GIBCO), and 1% trypsin (GIBCO) in CMF. […] Viable cells density was assessed by trypan blue exclusion assay using Bürker’s haemocytometer. […]\n(§3) To indicate the target cells damaged, immunofluorescent (IF) and immunoenzymatic (IE) staining was performed. […] IF staining fluorescence was examined using a fluorescent microscope (λ = 490 nm). In IE staining, a substrate (3,3’,5,5’-tetramethylbenzidine, SIGMA) was added (100 μL/well) and reaction was evaluated for 30 min at room temperature. […] The expression level of particular proteins was determined by measuring optical density at 450 nm. […]"}, "[2]": {"test_system": "MAP2 expression (neurons in late stage of development)", "test": "Differentiation, immunoenzymatic determination of MAP2 expression", "assay_type": "cell-based, rat", "settings": "NRU IC50 over ID50", "description": "as §1, §2, §3"}, "[3]": {"test_system": "rat embryo midbrain micromass cultures (neurospheres)", "test": "Differentiation, computerised image analysis of haematoxylin stained neurospheres", "assay_type": "cell-based", "description": "as §1\nTissues were pooled from a number of embryos, washed and incubated for 20 min at 37 °C in sequence in Earle’s balanced salt solution calcium and magnesium-free (CMF, GIBCO), and 1% trypsin (GIBCO) in CMF. Then the tissues were washed in CMF and culture medium (Ham’s F-12 nutrient mixture: foetal bovine serum: L-glutamine: penicillin/streptomycin - 88:10:1:1 v/v – all materials were from GIBCO). A single cell suspension was ensured by mechanical dissociation followed by passing the suspension through sterile 10 μm nylon mesh. Viable cells density was assessed by trypan blue exclusion assay using Bürker’s haemocytometer.\nHigh-cell-density cultures were set up carefully as a 5–10 μL drop in the centre of each well of 96-well fibronectin coated microplate (BECTON DICKINSON), so that number of cells /well was 5 × 10^4. After 2 h incubation (37°C, 5% CO2) the cells were exposed to different concentrations of tested compounds and incubated five days. Then dual assessment i.e. cytotoxicity and an impact of tested compound on cells differentiation (embryotoxicity) were done in the same cultures.\nAfter removing the eluted solution, the cells were fixed in 10% formaldehyde for 20 min and stained (approximately 10 s) with Gill’s haematoxylin. Morphometric analysis was performed on digitised images of cells taken with Nikon SMZ stereoscopic microscope linked to Panasonic CCD BP-KR 222E colour camera. The number of neurospheres (containing differentiated neural cells) was counted and their total and individual area was measured using computer image analysis software (LUCIA Measurement System).\nThe values of drug concentration, which inhibited cells viability by 50% (IC50) and reduced differentiation by 50% (ID50) when compared to unexposed control cells, were calculated according to Hill’s equation (sigmoidal model of concentration-response curve). Statistically significant differences between mean values obtained in immunoenzymatic analysis were determined based on analysis of variance (ANOVA) followed by Tukey – Kramer post-hoc test. Values of P < 0.05 were considered as statistically significant. All calculations were done using LSW Data Analysis Toolbox ver. 1.1.1. (MDL® Information Systems, Inc.) in Microsoft Excel 2000 spreadsheet and Kyplot software (Koichi Yoshioka, version 2.0 beta 4). In order to classify embryotoxic potential the mean inhibition concentrations for differentiation (ID50) of test chemical was used and the biostatistically based prediction model (PM) was applied. It is based on the linear discriminate analysis of three functions: function I: 6.65 × log (ID50)–9.49; function II: 6.16 × log (ID50)–8.29; function III: –1.31 × log (ID50)–1.42. The function providing the highest value was used to determine the class of embryotoxicity (class 1 – non-embryotoxic, class 2 – weakly embryotoxic, class 3 – strongly embryotoxic)."}, "[4]": {"settings": "five days exposure, computerised image analysis, mean±SD from 3 independent experiments"}},
  "data": [
    {"smiles": "O=c1[nH]cc(F)c(=O)[nH]1", "note": "[5-FU, 5-fluorouracil, reference compound]", "values": [
      {"measurement": "IC50/ID50 ratio: GFAP", "setting": "[1]", "result": 0.8},
      {"measurement": "IC50/ID50 ratio: MAP2", "setting": "[2]", "result": 0.9},
      {"measurement": "IC50/ID50 ratio: Number of neurospheres", "setting": "[3]", "result": 0.9},
      {"measurement": "IC50/ID50 ratio: Particular area of neurospheres", "setting": "[3]", "result": 0.7},
      {"measurement": "IC50/ID50 ratio: Total area of neurospheres", "setting": "[3]", "result": 0.9},
      {"measurement": "Inhibition of differentiation, ID50: Number of neurospheres", "setting": "[3]; [4]", "result": "0.17 ± 0.016", "unit": "µg/mL"},
      {"measurement": "Inhibition of differentiation, ID50: Particular area of neurospheres", "setting": "[3]; [4]", "result": "0.21 ± 0.015", "unit": "µg/mL"},
      {"measurement": "Inhibition of differentiation, ID50: Total area of neurospheres", "setting": "[3]; [4]", "result": "0.16 ± 0.010", "unit": "µg/mL"}
    ]}
  ]
}
